The values below come from patent US11633341B2, “Dental varnishes that release specifically targeted antimicrobial peptides and/or fluoride” (C3 Jian, LLC, priority 2017, dated 2023).

This data set has as its system S. mutans. Kind of data set: Anti-biofilm activity level (% viability remaining for S. mutans). The data set is classed as cell-based.

On to TFFRLFFRSNTQALGK*** [N7-F10/N21432], for which the “% viability remaining” value was found to be 76%.
The figure for TFFRLFNRSFTQALGS [K16-S16 C16G2] is 59%.
In the case of TFFRLNFRSFTQALGK [N7-F6/N21424], the “% viability remaining” value is 65%.
